Assay outcomes as filed in PubChem.
Hits are enriched below; roughly 3.7% of the tested compounds scored in any of these assays.
Nrf2 activator – activates Nrf2 signaling. AREc32 ARE-luciferase reporter (MCF7-derived line), luminescence, 24 h. Potency, µM (titrated, usually from 46.1 µM), for inactives: top-dose activation, usual class: activators. 0.31% of 410,000 active. AID 624171; also: potency is read from the fitted curve at half-maximal effect; % of control where 0% means no effect; nearly all actives have a fitted effect of over 65% in size
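ARE activation measured as luciferase luminescence (Steady-Glo, 30 min RT) in AREc32_Fluc cells after 24 hr compound exposure at 37 deg C, 5% CO2; cells seeded overnight at 1000/well in OPTI-MEM, 5% FBS.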
ClpP mod – qHTS Assay for Activators of ClpP; AID 651965, 2013; Potency, µM (top dose mostly 57.5 µM), inactives show at the top dose activity change, negative = active; 1.9% of 340,000 active; ATP-dependent Clp protease proteolytic subunit (Bacillus subtilis (strain 168)), P80244; purified B. subtilis ClpP, FRET peptide cleavage, 20 min; active = well fitted falling curve with a large enough effect; inconclusive = small, poorly fitted or top-dose-only effect; inactive = no such curve, though single readings can be large or run the other way; also: potency is read from the fitted curve at half-maximal effect; the source files actives as falling curves though it sought activators and does not explain the sign; nearly all actives have a fitted effect of over 65% in size
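Buffer: 100 mM Tris/HCl pH8, 100 mM KCl, 0.05% low protease BSA, 2.5% glycerol, 0.01% Tween-20. ClpP 10 microg/mL final; 20 min RT; delta FRET normalized to ADEP and DMSO controls.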
IL2 activator – IL-2 activation. IL-2 activation reporter assay, cell-based qHTS; stimulated with anti-CD3/CD4/CD28 beads; in transgenic mouse T cells. activation, % (series mostly up to about 46 µM). 0.065% of 360,000 active; in the data active = activation above about 50%; inconclusive = mostly about 30% to 49%; also: 0% is about no effect
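EGFP and DsRed fluorescence is measured by plate cytometry in unstimulated transgenic mouse T cells exposed to compound for 60 minutes, then stimulated 18 hours at 37 degrees C with anti-CD3/anti-CD4 beads plus anti-CD28.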
A549 viability – A549 cytotoxicity, counter-screen for Nrf2 inhibitors. Potency, µM (top dose mostly 46 µM), inactives show top-dose activity change, negative = cytotoxicity, most hits filed as inhibitors. 0.16% of 390,000 active. A549 ARE-Fluc cells, CellTiter-Fluor viability, 18-24 h. AID 504648; also: potency is read from the fitted curve at half-maximal effect; % is scaled to controls: 0 for no effect and ±100 for the full control effect
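Cytotoxicity counterscreen: CellTiter-Fluor fluorescence was measured in A549 ARE_Fluc cells after 18-24 h of compound exposure in a concentration series. The subsequent BugLite luminescent read reports ARE-luciferase activity.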
miR-21 FLuc – raises the signal of a miR-21 reporter | AID 2288 | 340,000 tested, under 10 active | Potency, µM (series often up to 38.3 µM), without a hit: at the highest dose reporter change, positive = more light | HeLa miR-21 FLuc reporter, luciferase, 48 h; active = well fitted rising curve with a large enough effect; inconclusive = small, poorly fitted or top-dose-only effect; inactive = no such curve, though single readings can be large or run the other way;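 further: % of control where 0% means no effect; miR-21 action dims this reporter so a rising signal means less miR-21 action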
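Using DMEM plus 10% FBS, HeLa miR-21-FLuc cells are incubated with test compounds (final up to about 40uM) for 48 hours; firefly luciferase signal is then imaged following reagent-mediated lysis.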
Nrf2 block – inhibitors of Nrf2 signaling | A549 ARE-Fluc reporter, luciferase luminescence, 18-24 h | Potency, µM (titrated, usually from 46 µM), without a hit: at the highest dose activity change, negative = inhibition, hits mostly inhibitors | 2.1% of 360,000 active; also: potency is read from the fitted curve at half-maximal effect; % is scaled to controls: 0 for no effect and ±100 for the full control effect; nearly all actives have a fitted effect of over 60% in size
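Concentration-response testing used A549 ARE_Fluc cells at 5000 cells/well. Following an 18-24 h compound incubation, viability was read by fluorescence (Ex 405/Em 525) and luciferase output by luminescence.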
Active calls of the source: *; ? = inconclusive; · = not tested or not shown. Unless noted, calls follow the shape of the dose curve; as a rule, active = well fitted curve in the direction sought with a large enough effect; inconclusive = small, poorly fitted or top-dose-only effect, or another doubt; inactive = no such curve, though single readings can be large; an effect the other way counts as inactive or inconclusive.

Sequences of proteins named here, by UniProt entry; tags and fusion partners are left off.
ATP-dependent Clp protease proteolytic subunit (Bacillus subtilis (strain 168)), P80244, UniProt P80244, whole entry, looked up: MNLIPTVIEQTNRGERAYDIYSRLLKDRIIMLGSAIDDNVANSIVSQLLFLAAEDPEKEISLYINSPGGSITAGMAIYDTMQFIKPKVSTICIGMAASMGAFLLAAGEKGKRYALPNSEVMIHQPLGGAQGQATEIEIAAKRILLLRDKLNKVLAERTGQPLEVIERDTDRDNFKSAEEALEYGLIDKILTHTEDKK

SMILES	Nrf2 activator	ClpP mod	IL2 activator	A549 viability	miR-21 FLuc	Nrf2 block
CCNc1cc2n(c(=O)n1)CCc1cc(OC)c(OC)cc1-2	5.4%	28.2µM*	-0.3	-4.4%	-15.5%	?
COc1cc2c(cc1OC)-c1cc(NCc3ccccn3)nc(=O)n1CC2	2.6%	28.2µM*	2.4	-1.0%	-25.2%	-6.5%
COc1cc2c(cc1OC)-c1cc(NC3CC3)nc(=O)n1CC2	23.2%	-28.9%	0.4	-11.4%	-8.1%	?
CCCCCCNc1cc2n(c(=O)n1)CCc1cc(OC)c(OC)cc1-2	4.7%	15.8µM*	-2.6	7.0%	-19.2%	·
CCOc1ccccc1Nc1cc2n(c(=O)n1)CCc1cc(OC)c(OC)cc1-2	12.1%	·	0.0	0.9%	-27.8%	-20.8%
CC(NC(=O)c1ccc2c(c1)sc1nc(-c3ccccc3)cn12)C12CC3CC(CC(C3)C1)C2 (stereo not drawn)	0.6%	?	·	4.5%	1.5%	-2.0%
Cc1ccc(Cl)cc1N1CCN(S(=O)(=O)c2ccc3c(c2)CCCN3C(=O)C2CCC2)CC1	0.3%	1.3%	·	-0.9%	-1.2%	·
O=C1C=C(C#Cc2ccccc2)C[C@@H](c2ccc(F)cc2)C1	8.91µM*	0.5%	-1.4	·	·	·
COc1ccccc1C#CC1=CC(=O)C[C@H](c2ccc(F)cc2)C1	?	-5.2%	-2.3	·	·	·
COc1ccc(-n2c(SCC(=O)NCc3ccccc3)nc3n[nH]c(C)c3c2=N)cc1	6.8%	66.8%	·	2.6%	0.7%	·
CSc1nccc(-c2c(-c3ccc(Cl)cc3)noc2C)n1	0.1%	0.8%	0.0	17.9%	1.6%	-4.7%
CSc1nccc(-c2cc(Cl)sc2Cl)n1	11.2µM*	-0.5%	1.3	14.3%	-8.1%	·
COc1ccc2c(c1)c1c(c(=O)n(-c3ccccc3C)c(=O)n1Cc1c(F)cccc1Cl)n2C	-1.0%	-14.2%	·	10.0%	0.1%	?
Cn1c(=O)n(C)c2cc(NC(=O)COc3ccc(Cl)cc3)ccc21	2.1%	·	2.4	0.9%	14.9%	16.4µM*
CS(=O)(=O)c1nc(S(=O)(=O)c2ccc(Cl)cc2)c(N2CCOCC2)s1	6.31µM*	-0.9%	1.0	-2.7%	5.7%	?
CC1CN(c2sc(S(C)(=O)=O)nc2S(=O)(=O)c2ccc(Cl)cc2)CC(C)O1 (stereo not drawn)	?	-0.3%	-2.7	-11.0%	3.5%	-22.2%
Cc1c(C(=O)OC(C)C(=O)N(C)Cc2ccccc2)oc2ccccc12 (stereo not drawn)	-0.6%	-14.2%	0.1	2.2%	·	8.6%
Cc1c(C(=O)OC(C)C(C)C[N+](C)(C)C)oc2ccccc12 (stereo not drawn)	0.2%	28.2µM*	0.4	-9.8%	-0.6%	-16.7%
COc1ccccc1CNC(=O)C1CCN(S(=O)(=O)c2ccc3c(c2)CCCN3C(C)=O)CC1	4.2%	-0.7%	·	-4.1%	0.7%	·
COc1ccc(C2c3c(ncn(CCCc4ccccc4)c3=N)Oc3ccc4ccccc4c32)cc1OC (stereo not drawn)	·	·	·	-11.9%	·	3.9%
N#CC(C#N)=C(Nc1ccc(F)cc1)SCc1cccc(Br)c1	?	-25.9%	-4.4	?	?	4.11µM*
CC(SCc1ccccc1)C(=O)Nc1ccc(F)cc1 (stereo not drawn)	0.1%	-1.3%	-2.4	4.6%	-11.2%	-6.0%
Cc1cccc(CSC(Nc2ccc(F)cc2)=C(C#N)C#N)c1	20.4%	3.0%	-0.4	-27.4%	?	18.4µM*
Cc1cccc(NC(=O)Cc2ccc(F)cc2)c1	0.0%	-1.7%	-3.0	-5.3%	-24.1%	·
CC1=CC2=NC(=O)CC(C)(C(=O)N(CC(=O)NC(C)(C)C)C3CCCC3)N2C=C1 (stereo not drawn)	-0.5%	31.6µM*	0.6	1.8%	0.8%	?
CC(C)(C)NC(=O)CN(C(=O)C1(C)CC(=O)N=C2C=CC=CN21)C1CCCC1 (stereo not drawn)	0.3%	?	-1.6	0.4%	-1.0%	-16.7%
Cc1c(CNCCCc2ccccc2)c(C(=O)O)c(C)n1Cc1ccc(Cl)cc1	4.8%	1.9%	·	0.4%	3.4%	3.4%
Cc1cc(N2CCOCC2)n2nc(C)c(-c3ccccc3Cl)c2n1	0.4%	-14.8%	-1.0	?	8.2%	16.4µM*
N=c1oc2cc(O)ccc2cc1C(=O)Nc1ccc(Br)cc1	3.8%	-2.0%	4.2	2.9%	-38.3%	20.6µM*
COc1cc2c3nnc(-c4ccc(F)cc4)c-3cn(Cc3ccccc3)c2cc1OC	8.1%	-9.6%	199.2*	6.7%	1.0%	0.9%
COc1cc2c3nnc(-c4ccc(F)cc4)c-3cn(Cc3ccc(F)cc3)c2cc1OC	19.0%	-21.0%	?	-5.8%	0.7%	-6.0%
O=C1CCCC2=C1C1(CCCC1)N=C(Nc1nc3cc(Cl)ccc3o1)N2	·	·	·	2.4%	·	?
COc1ccc2[nH]c(=O)c(CN(Cc3nnnn3Cc3ccccc3)CC3CCCO3)cc2c1 (stereo not drawn)	0.6%	28.2µM*	-3.2	-2.3%	-18.5%	-6.5%
COc1ccc2[nH]c(=O)c(CN(Cc3nnnn3Cc3ccc(F)cc3)CC3CCCO3)cc2c1 (stereo not drawn)	-0.7%	?	-0.3	2.2%	-6.1%	-0.8%
CCc1ccc2[nH]c(=O)c(CN(Cc3ccccc3)Cc3nnnn3Cc3ccccc3)cc2c1	·	25.1µM*	·	?	·	?
Cn1cc(S(=O)(=O)N2CCCCC2)cc1C(=O)N1CCN(c2ccc(F)cc2)CC1	0.7%	-0.2%	·	10.0%	2.9%	·
CC1CCCCN1S(=O)(=O)c1ccc2[nH]c(=O)cc(C(=O)NCCc3ccc(Cl)cc3)c2c1 (stereo not drawn)	2.2%	-10.1%	·	6.5%	-36.3%	·
Cc1ccccc1NC(=O)CCc1c(C)nc2c(c1C)c(=O)n(C)c(=O)n2C	0.2%	-9.5%	·	-2.8%	3.0%	0.2%
O=C(CNc1cccc(S(=O)(=O)N2CCCC2)c1)Nc1cccc(Br)c1	2.1%	-0.9%	-1.0	-23.0%	·	20.6µM*
O=C(Nc1cccc(Br)c1)c1cccc(OC(=S)N2CCOCC2)c1	8.8%	-2.9%	-1.2	-1.9%	12.0%	16.4µM*
O=C(CNc1cccc(S(=O)(=O)N2CCOCC2)c1)Nc1cccc(Br)c1	2.2%	28.2µM*	-1.6	0.0%	·	?
O=C(Nc1ccc(C(=O)N2CCOCC2)cc1)c1cccc(Br)c1	4.1%	?	0.2	-17.2%	-24.8%	-7.5%
COc1ccc(Nc2ccc3cc(S(=O)(=O)N4CCCC4)ccc3n2)cc1Cl	4.0%	4.8%	·	-25.1%	8.4%	25.9µM*

Fetched one by one from above:
SMILES	Nrf2 activator	ClpP mod	IL2 activator	A549 viability	miR-21 FLuc	Nrf2 block
Cn1c(=O)n(C)c2cc(NC(=O)COc3ccc(Cl)cc3)ccc21	2.1%	·	2.4	0.9%	14.9%	16.4µM*
CCCCCCNc1cc2n(c(=O)n1)CCc1cc(OC)c(OC)cc1-2	4.7%	15.8µM*	-2.6	7.0%	-19.2%	·
Cc1c(C(=O)OC(C)C(=O)N(C)Cc2ccccc2)oc2ccccc12 (stereo not drawn)	-0.6%	-14.2%	0.1	2.2%	·	8.6%
COc1ccc(Nc2ccc3cc(S(=O)(=O)N4CCCC4)ccc3n2)cc1Cl	4.0%	4.8%	·	-25.1%	8.4%	25.9µM*
O=C(CNc1cccc(S(=O)(=O)N2CCCC2)c1)Nc1cccc(Br)c1	2.1%	-0.9%	-1.0	-23.0%	·	20.6µM*
